# Experimental data published in PubChem BioAssay AID2012 (Sanford-Burnham Center for Chemical Genomics, 2009).
# Only a part is listed here, and it is no random draw. Some structures show a salt or complex split into parts, the way the source records it. The source made the active and inactive calls. How the calls were made is not given here.
# Target: Eukaryotic translation initiation factor 4H (Homo sapiens) (UniProt Q15056)
# Assay: eIF4H binding inhibition – biochemical, uHTS, fluorescence polarization, translation initiation inhibitor project, primary screen (AID 2012)
# Details: eIF4H fluorescence polarization binding assay; at 35 µM; active compounds read high
row,SMILES,inhibition
1,CC(=O)NC(SC(=S)N(CC(C)C)CC(C)C)C(Cl)(Cl)Cl (stereo not given),inactive: -3%
2,Cc1ccc(OP(=O)(Nc2ccccn2)Oc2ccc(C)cc2)cc1,inactive: -2.4%
3,COC(=O)c1cc2c(s1)N=C(c1ccccc1)N(C)P2(=O)N1CCOCC1 (stereo not given),inactive: -15.2%
4,CCN(CC)CCCOC(=O)C(O)(c1ccccc1)C1CCCCC1 (stereo not given),inactive: 1.1%
5,CCC(=O)N1C2C3N(C(=O)CC)C1C1N(C(=O)CC)C(C(N1C(=O)CC)N3C(=O)CC)N2C(=O)CC,inactive: 7%
6,O=C(OC1CN2CCC1CC2)c1ccccc1 (stereo not given),inactive: 3.3%
7,CP(=O)(Nc1ccccc1)Oc1ccc(F)cc1 (stereo not given),inactive: -1.8%
8,O=[N+]([O-])c1cc([N+](=O)[O-])c(OC2CCCCC2O)c([N+](=O)[O-])c1 (stereo not given),inactive: -1.3%
9,CCCCCOc1ccc(NP(C)(=O)Oc2ccc(Cl)cc2Cl)cc1 (stereo not given),inactive: -8.3%
10,O=c1c2cc([N+](=O)[O-])ccc2[nH]c2c([N+](=O)[O-])cc([N+](=O)[O-])cc12,inactive: 2.6%
11,CN(C)C(=O)Oc1noc2ccccc12,inactive: -6.5%
12,Cc1ccccc1OP(=O)(Nc1ccccn1)Oc1ccccc1C,inactive: 6.3%
13,CCNC(=S)/N=C(\N)N[N+](=O)[O-],inactive: -2.8%
14,O=C(NC1CCS(=O)(=O)C1)NP(=S)(Oc1ccccc1)Oc1ccccc1 (stereo not given),inactive: 1.4%
15,Cc1ccc(NP(=O)(Oc2cccc(C)c2)Oc2cccc(C)c2)nc1,inactive: -12.1%
16,CCOC(=O)NC(Sc1ccccc1)C(Cl)(Cl)Cl (stereo not given),inactive: 3.8%
17,c1ccc(-c2nn[nH]n2)c(-c2nn[nH]n2)c1,inactive: 3.2%
18,CCOC(=O)c1ccc(NP(C)(=O)Oc2ccc(F)cc2)cc1 (stereo not given),inactive: 1.5%
19,COc1ccc(OP(C)(=O)Nc2ccc(SC(F)(F)F)cc2)cc1 (stereo not given),inactive: -6.7%
20,O=C(OC1CN2CCC1CC2)c1ccc([N+](=O)[O-])cc1 (stereo not given),inactive: 9.6%
21,CC(=O)c1ccc(N2CC2c2ccncc2)cc1 (stereo not given),inactive: -3.7%
22,C[C@H]1OP(=O)(Oc2ccccc2)C[C@@H]2O[C@@H]21 (stereo not given in full),inactive: -12.2%
23,C[C@@H]1C=CCP(=O)(Oc2ccccc2)O1 (stereo not given in full),inactive: -6.8%
24,O=C(OCCN1CCN(CCOCc2ccccc2)CC1)C(O)(c1ccccc1)c1ccccc1,inactive: 8.5%
25,CC(=O)Nc1ccc(Oc2c([N+](=O)[O-])cc([N+](=O)[O-])cc2[N+](=O)[O-])cc1,inactive: -13.2%

row,SMILES,inhibition
1,CC(=O)Nc1ccc([As](=O)(O)O)c(O)c1,inactive: 1.3%
2,COc1ccc2c(c1O)-c1c(O)c(OC)cc3c1[C@H](C2)[N+](C)(C)CC3.O=[N+]([O-])c1cc([N+](=O)[O-])c([O-])c([N+](=O)[O-])c1[O-],inactive: 18%
3,CCOc1ccc(C2=NCC(CBr)S2)cc1 (stereo not given),inactive: -21.3%
4,O=P1(Nc2nc3ccc(Cl)cc3s2)COc2ccccc2O1 (stereo not given),inactive: -7%
5,CP(=O)(Nc1ccccc1F)Oc1ccccc1 (stereo not given),inactive: 3%
6,CC(C)c1ccc(OP(C)(=O)Nc2ccc(SC(F)(F)F)cc2)cc1 (stereo not given),inactive: -10.6%
7,CC(C)(C)C(=O)NC(Sc1ccccc1)C(Cl)(Cl)Cl (stereo not given),inactive: 5.6%
8,CP(=O)(Nc1ccc2c(c1)OCCO2)Oc1ccccc1 (stereo not given),inactive: 8.6%
9,Cc1ccccc1NP(C)(=O)Nc1ccccc1C,inactive: -8.3%
10,CP(=O)(Nc1ccc(SC(F)(F)F)cc1)Oc1ccc(F)cc1 (stereo not given),inactive: -0.3%
11,CC(C)C(=O)NC(Sc1ccccc1)C(Cl)(Cl)Cl (stereo not given),inactive: -11.7%
12,O=P(Nc1nccs1)(c1ccccc1)c1ccccc1,inactive: 4.1%
13,CCOP(C)(=S)SCC(=O)NC(C)(CC)C(=O)O (stereo not given),inactive: -6.7%
14,c1nnnn1CCn1cnnn1,inactive: -7.9%
15,O=[N+]([O-])c1ccc(O)c(/C=N/Nc2ccc([N+](=O)[O-])cc2[N+](=O)[O-])c1,inactive: 54.2%
16,O=[N+]([O-])c1ccc(OP2(=O)COCCO2)cc1 (stereo not given),inactive: 12.3%
17,O=[N+]([O-])c1ncn(CCn2cnc([N+](=O)[O-])n2)n1,inactive: -2.3%
18,Cc1cc(-c2cccc3ccccc23)c(C)cn1.O=[N+]([O-])c1cc([N+](=O)[O-])c(O)c([N+](=O)[O-])c1,inactive: -9.5%
19,O=[N+]([O-])c1cc([N+](=O)[O-])c(NCC2CCS(=O)(=O)C2)c([N+](=O)[O-])c1 (stereo not given),inactive: 1.6%
20,O=[As](O)(c1ccccc1)c1ccc(O)cc1,inactive: -2.7%
21,C(Cc1nn[nH]n1)Cc1nn[nH]n1,inactive: 4.6%
22,Nc1ccc([As](=O)(O)c2ccc([N+](=O)[O-])cc2)cc1,inactive: 3.9%
23,O=C(OC1CN2CCC1CC2)c1cccc(Cl)c1 (stereo not given),inactive: 4.1%
24,COc1ccc(OP(C)(=O)Nc2cccc(Br)c2)cc1 (stereo not given),inactive: -1.5%
25,O=P(Nc1ccccn1)(c1ccc(Br)cc1)c1ccc(Br)cc1,inactive: -0.9%

row,SMILES,inhibition
1,CN(C)C1(CNC(=O)c2ccc(Cl)c(S(N)(=O)=O)c2)CCCCC1,inactive: -2.7%
2,C[C@H]1OP(=O)(Oc2ccccc2)[C@H](O)[C@H](O)[C@H]1N=[N+]=[N-] (stereo not given in full),inactive: -2.4%
3,CN(C)CCOC(=O)C(O)(c1ccccc1)C1CCCCC1 (stereo not given),inactive: 4.6%
4,O=P(Nc1nc2ccccc2s1)(c1ccccc1)c1ccccc1,inactive: -1.2%
5,COc1ccc(NP(C)(=O)Oc2ccccc2OC)cc1 (stereo not given),inactive: 0.5%
6,CC(C)(C)C(=O)NC(Sc1ccncn1)C(Cl)(Cl)Cl (stereo not given),inactive: -7.5%
7,O=[N+]([O-])c1ncn(CCn2ncnc2[N+](=O)[O-])n1,inactive: 4%
8,O=[N+]([O-])c1cccc(NC2=NCC(CBr)S2)c1 (stereo not given),inactive: 2.9%
9,O=C(O)CNc1ccc([As](=O)(O)O)cc1,inactive: 4.9%
10,O=C(Nc1cc([As](=O)(O)O)ccc1O)c1ccccc1,inactive: 4.4%
11,CCOC(=O)c1ccc(NP(C)(=O)Oc2ccc(Cl)cc2)cc1 (stereo not given),inactive: -17%
12,CP(=O)(OC12CC3CC(CC(C3)C1)C2)OC12CC3CC(CC(C3)C1)C2,inactive: -4.3%
13,COc1ccccc1OP(C)(=O)Nc1ccccc1Br (stereo not given),inactive: -4.4%
14,CC(C)(C)c1ccc(OP(C)(=O)O)cc1,inactive: -13.2%
15,Nc1ccc([As](=O)(O)c2ccc(N)cc2)cc1,inactive: 3.6%
16,CP(=O)(Nc1ccc(Cl)cc1)Oc1ccc(F)cc1 (stereo not given),inactive: -16.5%
17,CCN(/C(=N/P(=O)(N1CCOCC1)N1CCOCC1)N1CCOCC1)c1ccc(OC)cc1,inactive: 3.9%
18,CN(C)C(=O)OCCc1n(C)cc[n+]1C,inactive: 24.5%
19,CN(C)C(=O)c1c([N+](=O)[O-])cc([N+](=O)[O-])cc1[N+](=O)[O-],inactive: 1.4%
20,CC(C)=N/N=C(\N)N[N+](=O)[O-],inactive: 6.3%
21,CC1CCN(C(=O)Oc2c(Cl)cc(Cl)c3cccnc23)CC1,inactive: -6.5%
22,COc1ccc(C2=NCC(CBr)S2)cc1 (stereo not given),inactive: -7.1%
23,COc1ccc(OP(C)(=O)Nc2ccc(Br)cc2)cc1 (stereo not given),inactive: -8.5%
24,CCN(CC)CC(O)COC(=O)C(O)(c1ccccc1)C1CCCCC1 (stereo not given),inactive: -4.8%
25,O=C(OCCCN1CCCC1)C(O)(c1ccccc1)C1CCCCC1 (stereo not given),inactive: 9.1%

row,SMILES,inhibition
1,O=[N+]([O-])c1cccc2n[nH]nc12,inactive: -2.1%
2,CC(=O)N1C2C3N(C(C)=O)C1C1N(C(C)=O)C(C(N1C(C)=O)N3C(C)=O)N2C(C)=O,inactive: 34.7%
3,COc1ccccc1OP(C)(=O)Nc1c(C)n(C)n(-c2ccccc2)c1=O (stereo not given),inactive: -7.2%
4,CCc1ccc(OP(C)(=O)Nc2cccnc2)cc1 (stereo not given),inactive: 5.7%
5,CCc1nc2c(n1)c1c(non1O)c1c2no[n+]1[O-],inactive: -2.4%
6,O=[N+]([O-])c1cc([N+](=O)[O-])c(CCNc2ccccc2)c([N+](=O)[O-])c1,inactive: 0.6%
7,Cc1ccc(NP(=O)(Oc2ccccc2)Oc2ccccc2)nc1,inactive: -3.9%
8,CP(=O)(Oc1ccccc1)N1CCOC1=O (stereo not given),inactive: 2.5%
9,Cc1c(NP(C)(=O)Oc2ccc(C(C)C)cc2)c(=O)n(-c2ccccc2)n1C (stereo not given),inactive: 0.7%
10,Nc1cc(N)c2nonc2c1[N+](=O)[O-],inactive: 4.2%
11,CC(C)CC(=O)NC(Sc1ccc(Cl)cc1)C(Cl)(Cl)Cl (stereo not given),inactive: -1.4%
12,O=[N+]([O-])c1cc([N+](=O)[O-])c(Nc2ccccn2)c([N+](=O)[O-])c1,inactive: -9.1%
13,O=C(NC(Sc1ccncn1)C(Cl)(Cl)Cl)c1ccccc1 (stereo not given),inactive: -7.7%
14,Cc1c2non([O-])c-2c(C)[n+](=O)[n+]1[O-],inactive: 6.6%
15,Oc1ccccc1CNc1ccccn1,inactive: -2.6%
16,COc1ccccc1OP(C)(=O)Nc1ccc(C)cc1C (stereo not given),inactive: 1.5%
17,CP(=O)(Nc1ccccn1)Oc1ccccc1 (stereo not given),inactive: -3.6%
18,CCc1ccc(OP(C)(=O)O)cc1,inactive: -5.5%
19,NC(=O)c1cc([N+](=O)[O-])cc([N+](=O)[O-])c1N,inactive: 7.9%
20,Cc1ccc(N/C(=N/P(=O)(N2CCOCC2)N2CCOCC2)N2CCOCC2)cc1,inactive: 3.6%
21,COc1ccccc1OP(C)(=O)Nc1ccc(Br)cc1 (stereo not given),inactive: -4.2%
22,Cc1ccc(OP(=O)(Nc2nccs2)Oc2ccc(C)cc2)cc1,inactive: 1.1%
23,COc1ccccc1OP(=O)(Nc1ccc(C)cn1)Oc1ccccc1OC,inactive: -10.4%
24,COc1ccc(OP(C)(=O)Nc2ccccn2)cc1 (stereo not given),inactive: -6.2%
25,CN1CCCC(OC(=O)C(c2ccccc2)c2ccccc2)C1 (stereo not given),inactive: -3.5%
